Test results as given in patent US20220183282A1, “Fatty Acid Derivatives For Improving The Effect Of Agrochemical Actives” (priority 2019, published 2022).

Tested on: Poinsettia (e.g. variety Merlot)
Test: Plant compatibility (phytotoxicity) on indicator plant
Assay type: in vivo
Settings: 1 g/L, within one day
Source text: The plant compatibility of fatty acid derivatives according to formula (I) was checked using Poinsettia (e.g. variety Merlot) as indicator plant. If no necroses or other phytotoxicity symptoms, such as leaf curl-up or deformations were observed the substance is considered plant compatible and not phytotoxic.

## ethoxylated lauryl alcohol
  phytotoxicity symptoms (necroses, leaf curl-up, deformations): strong distinct necroses
